In patent publication CN115252762A, “一种高分子化合物的生长因子结合用途” (East China University of Science and Technology, priority 2021, dated 2022):

Test system: C2C12 cells [C2C12细胞]
Assay: Osteogenic differentiation of C2C12 on BMP-2-loaded gelatin sponge (RT-qPCR, western blot)
Assay type: cell-based, mouse
Settings: compared with pure medium (Ctrl); 3 and 7 days; 1 μg BMP-2 loaded

B1: BMP-2: bone morphogenetic protein-2 (protein, UniProt P12643 283-396, looked up)
Bone morphogenetic protein 2: QAKHKQRKRLKSSCKRHPLYVDFSDVGWNDWIVAPPGYHAFYCHGECPFPLADHLNSTNHAIVQTLVNSVNSKIPKACCVPTELSAISMLYLDENEKVVLKNYQDMVVEGCGCR
expression of osteogenesis-related proteins: 显著增加
